Test results as given in publication PMC8765437, “GSK3640254 Is a Novel HIV-1 Maturation Inhibitor with an Optimized Virology Profile” (Antimicrobial Agents and Chemotherapy, 2022).

Key:
HIV-1 Gag VLPs = type: binding; conditions: Wild type VLP
Protocol: In a 96-well white low-binding plate (Corning; Corning, NY), 0.5 to 1.2 μg of WT or other polymorphic or mutant VLPs was mixed in 40 μl of PBS with SPA beads (100 μg/well, PVT-WGA SPA beads; PerkinElmer) for 1 h at room temperature, and then the volume was increased to 200 μl/well by the addition of binding buffer (100 mM Tris [pH 6.5], 2 mM EDTA, 0.03% Tween 20, and 5 mM MgCl2). Serial dilutions of ^3H-MIs were then added to wells. The final concentration of DMSO in the assay was 10% (vol/vol). After an approximately 4-h equilibration at room temperature, bound ^3H-MIs were measured using a Top Count or Microbeta2 plate reader (PerkinElmer). Kd values were calculated by fitting the data using GraphPad Prism v5.1.

[1] = tested on: NLRepRlucP373S-based viruses; type: cell-based, HIV-1; conditions: Wild type

For `C=C(C)[C@@H]1CC[C@]2(NCCN3CCS(=O)(=O)CC3)CC[C@]3(C)[C@H](CC[C@@H]4[C@@]5(C)CC=C(C6=CC[C@@](CF)(C(=O)O)CC6)C(C)(C)[C@@H]5CC[C@]43C)[C@@H]12` [GSK’254], the “Relative GSK’254/GSK’795 affinity” value (HIV-1 Gag VLPs) was 2.1 and the “Serum effect (±HS EC50 ratio)” value [1] was 8.8.
